From ChEMBL document CHEMBL3400062, “Synthesis of novel C5-curcuminoid-fatty acid conjugates and mechanistic investigation of their anticancer activity” (Bioorg Med Chem Lett, 2015)

Amino acid sequences for entries named in this document (tags omitted). Residues count along the entry.
UniProt Q00653, 1-454 limits assumed: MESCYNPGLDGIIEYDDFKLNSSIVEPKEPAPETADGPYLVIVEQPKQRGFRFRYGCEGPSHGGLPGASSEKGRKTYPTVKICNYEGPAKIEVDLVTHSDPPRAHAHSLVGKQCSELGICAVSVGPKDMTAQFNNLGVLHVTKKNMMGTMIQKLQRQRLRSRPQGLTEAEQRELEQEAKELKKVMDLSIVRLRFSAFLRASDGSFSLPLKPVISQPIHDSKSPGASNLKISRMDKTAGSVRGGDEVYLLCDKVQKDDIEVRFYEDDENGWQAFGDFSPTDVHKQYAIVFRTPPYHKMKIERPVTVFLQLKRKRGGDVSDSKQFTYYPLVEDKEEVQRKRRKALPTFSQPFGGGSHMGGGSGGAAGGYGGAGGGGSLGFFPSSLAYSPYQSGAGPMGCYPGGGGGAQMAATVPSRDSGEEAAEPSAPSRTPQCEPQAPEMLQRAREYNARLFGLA
UniProt P19838, 1-433 limits assumed: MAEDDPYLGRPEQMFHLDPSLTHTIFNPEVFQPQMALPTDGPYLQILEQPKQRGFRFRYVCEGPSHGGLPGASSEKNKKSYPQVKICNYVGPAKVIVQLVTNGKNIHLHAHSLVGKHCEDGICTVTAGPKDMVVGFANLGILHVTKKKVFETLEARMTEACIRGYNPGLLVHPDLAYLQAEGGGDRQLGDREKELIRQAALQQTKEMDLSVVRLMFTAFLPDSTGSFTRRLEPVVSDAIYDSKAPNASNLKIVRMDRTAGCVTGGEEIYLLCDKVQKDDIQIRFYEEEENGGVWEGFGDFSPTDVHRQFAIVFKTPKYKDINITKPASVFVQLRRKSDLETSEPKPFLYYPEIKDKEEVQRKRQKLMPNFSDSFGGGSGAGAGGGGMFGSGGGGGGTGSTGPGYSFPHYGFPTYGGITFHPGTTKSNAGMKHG
UniProt Q04206, whole entry: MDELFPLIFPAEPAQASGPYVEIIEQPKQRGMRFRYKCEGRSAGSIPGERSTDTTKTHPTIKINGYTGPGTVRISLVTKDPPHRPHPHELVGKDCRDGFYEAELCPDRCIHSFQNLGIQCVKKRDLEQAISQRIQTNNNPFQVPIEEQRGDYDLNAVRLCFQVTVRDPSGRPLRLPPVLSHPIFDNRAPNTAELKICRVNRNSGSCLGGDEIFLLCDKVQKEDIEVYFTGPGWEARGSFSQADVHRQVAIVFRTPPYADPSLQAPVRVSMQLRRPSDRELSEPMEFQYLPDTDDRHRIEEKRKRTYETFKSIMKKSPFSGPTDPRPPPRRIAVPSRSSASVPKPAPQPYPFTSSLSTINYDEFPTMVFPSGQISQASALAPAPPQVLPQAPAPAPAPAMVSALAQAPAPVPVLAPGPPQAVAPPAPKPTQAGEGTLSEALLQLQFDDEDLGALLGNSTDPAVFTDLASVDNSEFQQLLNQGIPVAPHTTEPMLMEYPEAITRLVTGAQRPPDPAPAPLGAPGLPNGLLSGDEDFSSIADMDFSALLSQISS

Molecular target: Nuclear factor NF-kappa-B complex (Homo sapiens, UniProt Q00653+P19838+Q04206)
Test: Inhibition of TNFalpha-induced nuclear factor-kappa-B (unknown origin) expressed in HEK293 cells pre-incubated for 16 hrs followed by TNFalpha stimulation for 6 hrs by luciferase reporter gene assay
Type: cell-based
How it was run: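 NFκB reporter HEK293 cells seeded at 30,000/well in assay medium without hygromycin B and allowed to reattach overnight at 37°C, 5% CO2. Compound dilutions added for 16 h (DMSO in untreated and cell-free controls). Mouse TNFα 5 ng/mL then added for 6 h. Cells lysed with one-step luciferase reagent about 15 min at room temperature, luminescence read. Non-linear regression; triplicate, mean ± SEM.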

- IC50: 7.7 µg/mL (≈ 20.9 µM)
SMILES: COc1cc(/C=C/C(=O)CC(=O)/C=C/c2ccc(O)c(OC)c2)ccc1O [CURCUMIN]

In brackets after ≈: the same amount, converted by molar mass.
